In PubChem BioAssay AID504775 (Broad Institute, 2011) one finds activation data, which are given here for 101 compounds.

This is a selection; strong and weak results do not stand in their true shares. Active and inactive are the calls of the source.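 How the source made its calls: active means mean replicate activation of at least 60% and every replicate at or above 60%; inconclusive means mean or all-replicate condition met, but not both; inactive means mean below 60% and not all replicates reaching 60%.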

The test can be described thus: activators of SR-BI mediated DiI-HDL uptake, primary screen, ldlA[mSR-BI] CHO cells, DiI fluorescence (AID 504775).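 Further: 0% = median plate neutral-control signal and 100% = twice that signal.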 The conditions noted are these: 3 h, at 12.5 µM, hits give high values, 100 = double the neutral-control signal. Summed up: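 Material – SR-BI-overexpressing, LDLR-lacking CHO cells · Medium – BSA-supplemented, HEPES-buffered Ham's F12, pH 7.4 · Doses – single concentration · Times – compound with DiI-HDL co-incubation, 3 h at 37 °C · Measured by – bottom-read fluorescence, 550/595 nm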
Consider `O=P(Nc1nccs1)(c1ccccc1)c1ccccc1`, for which the activation is inactive: 6.46%. Next, `CC(C)C(=O)NC(Sc1ccccc1)C(Cl)(Cl)Cl` (stereo unspecified): inactive: -6.22%; `c1nnnn1CCn1cnnn1`: inactive: 0.532%; `CC(=O)NC(SC(=S)N(C)C)C(Cl)(Cl)Cl` (stereo unspecified): inactive: 9.66%. Next, `O=[N+]([O-])c1ccc(O)c(/C=N/Nc2ccc([N+](=O)[O-])cc2[N+](=O)[O-])c1`: inactive: 0.939%; `O=[As](O)(c1ccccc1)c1ccc(O)cc1`: inactive: -7.62%; `C(Cc1nn[nH]n1)Cc1nn[nH]n1`: inactive: -4.24%. `O=C(OC1CN2CCC1CC2)c1cccc(Cl)c1` (stereo unspecified): the activation was inactive: -1.36%. Take `COc1ccc(N)c([N+](=O)[O-])c1[N+](=O)[O-]`: the activation was inactive: -6.89%.

Regarding `CN(C)C1(CNC(=O)c2ccc(Cl)c(S(N)(=O)=O)c2)CCCCC1`, the activation is inactive: 14.3%.

Consider `O=P(Nc1ccccn1)(c1ccc(Br)cc1)c1ccc(Br)cc1`, for which the activation was inactive: 15.8%. Consider `C[C@H]1OP(=O)(Oc2ccccc2)[C@H](O)[C@H](O)[C@H]1N=[N+]=[N-]` (stereo partly specified), for which the activation was inactive: 10.4%. In the case of `Cc1ccc(OP(=O)(Nc2ccccn2)Oc2ccc(C)cc2)cc1`, the activation was inactive: 16.7%. As to `CC(=O)NC(SC(=S)N(CC(C)C)CC(C)C)C(Cl)(Cl)Cl` (stereo unspecified), the activation was inactive: 12.3%.

As to `COC(=O)c1cc2c(s1)N=C(c1ccccc1)N(C)P2(=O)N1CCOCC1` (stereo unspecified), the activation was inactive: -18.4%. Turning to `CCC(=O)N1C2C3N(C(=O)CC)C1C1N(C(=O)CC)C(C(N1C(=O)CC)N3C(=O)CC)N2C(=O)CC`, the activation was inactive: 9.8%.

`O=C(OC1CN2CCC1CC2)c1ccccc1` (stereo unspecified): the activation is inactive: 15.7%. Consider `CN(C)C(=O)Oc1noc2ccccc12`, for which the activation is inactive: 8.48%. Regarding `O=c1c2cc([N+](=O)[O-])ccc2[nH]c2c([N+](=O)[O-])cc([N+](=O)[O-])cc12`, the activation is inactive: -29.5%.

Take `Cc1ccccc1OP(=O)(Nc1ccccn1)Oc1ccccc1C`: the activation was inactive: -8.06%.

Regarding `CC(NC(=O)COC(=O)C(O)(c1ccccc1)c1ccccc1)c1ccccc1` (stereo unspecified), the activation is inactive: 12.6%. With `O=C(NC1CCS(=O)(=O)C1)NP(=S)(Oc1ccccc1)Oc1ccccc1` (stereo unspecified), the activation was inactive: 4.36%. As to `CCNC(=S)/N=C(\N)N[N+](=O)[O-]`, the activation is inactive: 12.1%. On to `Cc1ccc(NP(=O)(Oc2cccc(C)c2)Oc2cccc(C)c2)nc1`, for which the activation was inactive: 23%. As to `c1ccc(-c2nn[nH]n2)c(-c2nn[nH]n2)c1`, the activation was inactive: 16.3%. Next, `O=P1(N(CCCl)CCCl)OCCC2CCCCN21` (stereo unspecified): inactive: -12.1%; `COC(=O)C1(C)COP(=O)(NCc2ccccc2)OC1` (stereo unspecified): inactive: 12.2%.

For the compound `N#C/C(=C\c1ccc(N(CCBr)CCBr)cc1)C(N)=O`, the activation was inactive: -9.04%.

As for `CC(=O)c1ccc(N2CC2c2ccncc2)cc1` (stereo unspecified), the activation is inactive: -9.31%. Regarding `C[C@@H]1C=CCP(=O)(Oc2ccccc2)O1` (stereo partly specified), the activation was inactive: 15%. With `C[C@H]1OP(=O)(Oc2ccccc2)C[C@@H]2O[C@@H]21` (stereo partly specified), the activation is inactive: 2.02%. Consider `Cc1ccccc1CN(C)C(=O)COC(=O)C(O)(c1ccccc1)c1ccccc1`, for which the activation was inactive: 16.9%. As to `CC(=O)Nc1ccc(Oc2c([N+](=O)[O-])cc([N+](=O)[O-])cc2[N+](=O)[O-])cc1`, the activation was inactive: 10%.

As to `CC(=O)Nc1ccc([As](=O)(O)O)c(O)c1`, the activation is inactive: 24.8%.

Regarding `CCOc1ccc(C2=NCC(CBr)S2)cc1` (stereo unspecified), the activation was inactive: -0.0845%. With `O=P1(Nc2nc3ccc(Cl)cc3s2)COc2ccccc2O1` (stereo unspecified), the activation was inactive: 19.7%.

In the case of `CCc1cc(O)c([N+](=O)[O-])c(C)c1[N+](=O)[O-]`, the activation was inactive: 13.2%. As to `CC(C)(C)C(=O)NC(Sc1ccccc1)C(Cl)(Cl)Cl` (stereo unspecified), the activation was inactive: 15.9%. The value for `CC(C)CC(=O)NC(Sc1ccc(Cl)cc1)C(Cl)(Cl)Cl` (stereo unspecified) was inactive: 3.9%. The value for `Nc1cc(N)c2nonc2c1[N+](=O)[O-]` was inactive: 15.5%; that for `O=C(NC(Sc1ccncn1)C(Cl)(Cl)Cl)c1ccccc1` (stereo unspecified) was inactive: 16.6%.

Turning to `Oc1ccccc1CNc1ccccn1`, the activation is inactive: -4.36%. Consider `NC(=O)c1cc([N+](=O)[O-])cc([N+](=O)[O-])c1N`, for which the activation is inactive: 12.6%.

As to `Cc1ccc(N/C(=N/P(=O)(N2CCOCC2)N2CCOCC2)N2CCOCC2)cc1`, the activation is inactive: 30.7%.

With `CN(C(=O)Cc1ccc(Cl)c(Cl)c1)[C@H]1CCCC[C@H]1N1CCCC1`, the activation is inactive: 5.36%. Consider `COc1ccccc1OP(=O)(Nc1ccc(C)cn1)Oc1ccccc1OC`, for which the activation was inactive: 13.5%. Consider `Clc1ccc(Cl)c(NC2=NCC(CBr)S2)c1` (stereo unspecified), for which the activation was inactive: -13.3%. The value for `CN1CCCC(OC(=O)C(c2ccccc2)c2ccccc2)C1` (stereo unspecified) was inactive: 15.3%; that for `CCN(N=Nc1nonc1N)c1nonc1N` was inactive: 31.8%; that for `Nc1cccc2ccc([As](=O)(O)O)cc12` was inactive: 9.39%. For `CCCC1OP(N)(=O)OCC1CC` (stereo unspecified), the activation was inactive: 6.49%. Next, `O=C(O)c1ccccc1[As](=O)(O)O`: inactive: -4.64%; `CC(=O)Nc1ccc([As](=O)(O)O)cc1`: inactive: 6.8%.

Regarding `O=P(Nc1nc2ccc(Cl)cc2s1)(c1ccccc1)c1ccccc1`, the activation was inactive: -4.08%.

On to `CN(C(=O)Cc1ccc(Cl)c(Cl)c1)[C@H]1CCCC[C@@H]1N1CCCC1`, for which the activation was inactive: 28.6%. Turning to `Cc1ccc(NP(=O)(Oc2ccccc2F)Oc2ccccc2F)nc1`, the activation is inactive: -4.6%. With `CCOP(=O)(Nc1ccccc1)OCC`, the activation is inactive: 14%. As for `Cc1cc(SC(NC(=O)c2ccc(F)cc2)C(Cl)(Cl)Cl)ncn1` (stereo unspecified), the activation is inactive: -13.9%. For `O=[N+]([O-])c1ncn(CCn2ncnc2[N+](=O)[O-])n1`, the activation was inactive: -11.9%. As for `O=[N+]([O-])c1cccc(NC2=NCC(CBr)S2)c1` (stereo unspecified), the activation is inactive: -2.48%. Regarding `COC(=O)C1(C)COP(=O)(Nc2ccccc2)OC1` (stereo unspecified), the activation is inactive: 10.2%. For the compound `O=C(O)CNc1ccc([As](=O)(O)O)cc1`, the activation is inactive: 6.76%. As for `O=P1(N(CCCl)CCCl)OCCCS1` (stereo unspecified), the activation is inactive: 8.71%.

Take `O=C(Nc1cc([As](=O)(O)O)ccc1O)c1ccccc1`: the activation is inactive: -6.28%. In the case of `C[N+]1=C2C=CC=CC=C2SC12C([N+](=O)[O-])=CC([N+](=O)[O-])=C[C-]2[N+](=O)[O-]` (stereo unspecified), the activation was inactive: -13.8%.

With `Nc1ccc([As](=O)(O)c2ccc(N)cc2)cc1`, the activation was inactive: 16.8%.

Turning to `CCN(/C(=N/P(=O)(N1CCOCC1)N1CCOCC1)N1CCOCC1)c1ccc(OC)cc1`, the activation was inactive: 10.6%.

Regarding `CN(C)C(=O)OCCc1n(C)cc[n+]1C`, the activation was inactive: 23.9%. Regarding `CC(C)=N/N=C(\N)N[N+](=O)[O-]`, the activation was inactive: -0.047%. Next, `COc1ccc(C2=NCC(CBr)S2)cc1` (stereo unspecified): inactive: -2.65%; `CC(=O)N1C2C3N(C(C)=O)C1C1N(C(C)=O)C(C(N1C(C)=O)N3C(C)=O)N2C(C)=O`: inactive: 3.59%; `O=[N+]([O-])c1cccc2n[nH]nc12`: inactive: 45.3%.

For the compound `O=[N+]([O-])c1cc([N+](=O)[O-])c(CCNc2ccccc2)c([N+](=O)[O-])c1`, the activation was inactive: -8.88%.

In the case of `CCc1nc2c(n1)c1c(non1O)c1c2no[n+]1[O-]`, the activation was inactive: 8.89%. Take `Cc1ccc(NP(=O)(Oc2ccccc2)Oc2ccccc2)nc1`: the activation is inactive: -2.9%. Consider `CCOC(=O)c1ccc(NC(=O)C(C)(CCl)SC)cc1` (stereo unspecified), for which the activation was inactive: -4.36%. For `O=C(OC1CN2CCC1CC2)c1cccc([N+](=O)[O-])c1` (stereo unspecified), the activation is inactive: 8.07%. The value for `CCC(C)N(CC(C)C)C(=S)SC(NC(C)=O)C(Cl)(Cl)Cl` (stereo unspecified) was inactive: -27.5%; that for `COP1(=S)c2c(C)nn(CCC#N)c2N=C(c2ccc(F)cc2)N1C` (stereo unspecified) was inactive: -20.1%. Turning to `O=C(Nc1ccncc1[N+](=O)[O-])c1ccc([N+](=O)[O-])cc1[N+](=O)[O-]`, the activation is inactive: 6.42%. The value for `CCOC(=O)Nc1cccc([As](=O)(O)O)c1` was inactive: 21%; that for `O=[N+]([O-])c1ccc(Nc2ccc(Oc3ccc([N+](=O)[O-])cc3[N+](=O)[O-])cc2)c([N+](=O)[O-])c1` was inactive: 8.64%; that for `Cc1cc(SC(NC=O)C(Cl)(Cl)Cl)ncn1` (stereo unspecified) was inactive: 11.3%.

Take `O=P(Nc1ccccn1)(c1cccc2ccccc12)c1cccc2ccccc12`: the activation was inactive: -0.121%. With `CC1CCNP(=O)(N(CCCl)CCCl)O1` (stereo unspecified), the activation was inactive: 16.2%. As to `CCOC(=O)Nc1ccc([As](=O)(O)O)c(O)c1`, the activation was inactive: -7.21%. For `Cc1cc(SC(NC(=O)c2ccccc2)C(Cl)(Cl)Cl)nc(C(C)C)n1` (stereo unspecified), the activation is inactive: 15.8%.

For `CCCCOc1ccc(C(=O)NCC2(N3CCCCC3)CCCCC2)cc1OC`, the activation was inactive: 6.27%. On to `CC(C)c1ccc(OP(=O)(Nc2ccccn2)Oc2ccccc2F)cc1` (stereo unspecified), for which the activation was inactive: 12.9%. In the case of `COC(=O)C1(C)COP(=O)(N2CCCCCC2)OC1` (stereo unspecified), the activation is inactive: 17.3%. Take `ClCCSc1nnc(-c2cccnc2)o1`: the activation is inactive: 15.3%. On to `O=[N+]([O-])c1cc([N+](=O)[O-])c(-c2ccn[nH]2)s1`, for which the activation is inactive: 14.1%. The value for `O=C(OC1CN2CCC1CC2)c1cccc2[nH]cnc12` (stereo unspecified) was inactive: 9.54%; that for `CCN(CC)C(=S)SC(NC=O)C(Cl)(Cl)Cl` (stereo unspecified) was inactive: 5.71%. Next, `CC(C)NC(=O)NP(=O)(Oc1ccccc1)Oc1ccccc1`: inactive: -1.72%; `COc1cc(C(=O)NCC2(N3CCOCC3)CCCCC2)ccc1OCC(C)C`: inactive: -21.6%.

For `O=[N+]([O-])c1ccc(-c2cc([N+](=O)[O-])c(O)c([N+](=O)[O-])c2)cc1`, the activation is inactive: 14.2%.

As to `C[As](=O)(O)c1cccc(C(=O)O)c1`, the activation is inactive: 11.3%. With `O=[As](O)(c1ccc(O)cc1)c1ccccc1O`, the activation was inactive: 35.6%.

In the case of `Cc1ccc2nc3c(c(C)c2c1)CC(C(Cl)Cl)S3` (stereo unspecified), the activation is inactive: -5.32%. For the compound `Cc1ccc(OP(=O)(Nc2ccc([N+](=O)[O-])cn2)Oc2ccc(C)cc2)cc1`, the activation is inactive: 8.77%.
